Target: mannose-6-phosphate (M6P) receptor on GM00248 human Pompe fibroblasts (human)
Test: cell-based or functional assay

Substance	Kuptake (uptake into GM00248 fibroblasts, non-linear regression of intracellular activity vs enzyme concentration) [nM]	uptake efficiency relative to Myozyme® in GM00248 fibroblasts (times (vs Myozyme®))	uptake relative to Myozyme® in GM00248 fibroblasts, 1000 U/ml, 14 h and 46 h (times (vs Myozyme®))
purified huGAA uncapped and demannosylated with CcMan5 and JbMan (Example 11) (from UniProt P10253 57-952) (enzyme)	1.7	30	–
huGAA_CcMan4/5 (recombinant human alpha glucosidase from Y. lipolytica OXYY1589, uncapped with CcMan5 and de-mannosylated with CcMan4) (from UniProt P10253 57-952) (enzyme)	–	2.5	1.8
huGAA_JBMan (recombinant human alpha glucosidase from Y. lipolytica OXYY1589, uncapped and de-mannosylated with Jack bean alpha-mannosidase) (from UniProt P10253 57-952) (enzyme)	–	2.5	–
Myozyme® (alglucosidase alpha, Genzyme), commercial human alpha-glucosidase (from UniProt P10253 57-952)	64	–	–

— US20130267473A1
